We go through one substance from paper PMC5586252, “PP2A-B′ holoenzyme substrate recognition, regulation and role in cytokinesis” (Cell Discovery, 2017).

The target of the assay is GST-tagged KIAA1524 (CIP2A) peptide (B′-binding motif) (human). The assay is described as follows: BLI; GST-tagged peptides (300 nM) on anti-GST sensors; B′α, B′γ1 or PP2A-B′γ1 holoenzyme 0–30 μM in the mobile phase; 25 mM Tris pH 8.0, 100 mM NaCl, 3 mM DTT; 1:1 model.

Consider “B′γ1 regulatory subunit (from UniProt Q13362-2 1-449) (natural protein)”, for which the Kd – broadly, the equilibrium constant for the complex coming apart – was found to be 300 nM.
